# Earlier results in patent US20080125663A1, “Pre-And Intra-Operative Imaging of Testicular Torsion” (University of Rochester Medical Center, priority 2006, published 2008).
# Legend:
# Details in all cases: IV administration; cited from earlier work
# mice = system: mice
# rabbits = system: rabbits
# rats = system: rats
compound,measurement,setting,value
"CC1(C)C(/C=C/C=C/C=C/C=C2\N(CCCCS(=O)(=O)O)c3ccc4ccccc4c3C2(C)C)=[N+](CCCCS(=O)(=O)[O-])c2ccc3ccccc3c21 [ICG, indocyanine green]",LD50,mice,60 and 80 mg/kg
same,LD50,rabbits,50 to 80 mg/kg
same,LD50,rats,50 and 70 mg/kg
